# Assay results reported in PubChem BioAssay AID2751 (The Scripps Research Institute Molecular Screening Center, 2010).
# Amino acid sequences for entries named in this document (tags omitted).
# UniProt Q4J6C6, whole entry: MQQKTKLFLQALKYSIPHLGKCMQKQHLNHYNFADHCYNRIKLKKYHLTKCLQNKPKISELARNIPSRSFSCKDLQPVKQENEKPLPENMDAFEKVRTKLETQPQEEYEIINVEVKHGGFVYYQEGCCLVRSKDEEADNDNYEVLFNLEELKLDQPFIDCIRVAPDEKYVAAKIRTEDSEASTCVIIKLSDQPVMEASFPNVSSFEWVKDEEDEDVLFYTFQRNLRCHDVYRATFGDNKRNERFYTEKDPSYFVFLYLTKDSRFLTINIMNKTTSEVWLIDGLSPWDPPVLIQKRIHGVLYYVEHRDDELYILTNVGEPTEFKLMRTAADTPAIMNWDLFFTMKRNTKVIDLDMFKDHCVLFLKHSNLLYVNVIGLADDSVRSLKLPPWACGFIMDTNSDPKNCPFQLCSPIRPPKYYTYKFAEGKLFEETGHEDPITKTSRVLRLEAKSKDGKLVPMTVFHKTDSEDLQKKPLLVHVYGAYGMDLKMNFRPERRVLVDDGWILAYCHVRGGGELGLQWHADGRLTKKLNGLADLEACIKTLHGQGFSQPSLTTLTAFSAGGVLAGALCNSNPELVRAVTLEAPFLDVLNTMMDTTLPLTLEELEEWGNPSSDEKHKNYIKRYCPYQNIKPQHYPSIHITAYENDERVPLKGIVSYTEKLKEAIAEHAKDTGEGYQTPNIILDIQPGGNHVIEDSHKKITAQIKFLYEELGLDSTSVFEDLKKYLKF
# The entries are a selection whose mix differs from that of the whole data set. Active and inactive are the calls of the source. Cut-off read from the data, not from the text of the source: active = inhibition above about 43%; inactive = the rest.
# Molecular target: Prolyl endopeptidase-like (Homo sapiens) (UniProt Q4J6C6)
# Test: human PREPL activity-probe blockers – biochemical, fluorescence polarization, primary screen (AID 2751);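 note: 0% = enzyme with DMSO and 100% = wells lacking enzyme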
# Conditions: recombinant PREPL, fluorescence polarization activity-based probe; at 5.96 µM; hits give high values
row,SMILES,inhibition
1,CP(=S)(Nn1cnnc1)Oc1ccccc1 (centres undefined),inactive: -6.51%
2,CP(=O)(Nc1ccccc1Br)Oc1ccccc1 (centres undefined),inactive: -2.48%
3,COc1ccccc1OP(C)(=O)Nc1ccccc1 (centres undefined),inactive: -0.81%
4,CP(=O)(Oc1ccccc1)OC(c1ccccc1)C(F)(F)F (centres undefined),inactive: 3.11%
5,Cc1cccc(C)c1OP(C)(=O)Nc1ccc(SC(F)(F)F)cc1 (centres undefined),inactive: -8.07%
6,CP(=O)(Nc1ccc(SC(F)(F)F)cc1)Oc1ccc(Cl)cc1 (centres undefined),inactive: -21.6%
7,Cc1cc(C)cc(OP(C)(=O)Nc2ccc(SC(F)(F)F)cc2)c1 (centres undefined),inactive: -0.73%
8,CCc1ccc(OP(C)(=O)N2CCN(c3ccc([N+](=O)[O-])cc3)CC2)cc1 (centres undefined),inactive: -63.7%
9,CP(=O)(NC(=O)Nc1ccccc1)Oc1ccccc1 (centres undefined),inactive: 0.2%
10,CCOC(=O)c1ccc(NP(C)(=O)Oc2ccc(OC)cc2)cc1 (centres undefined),inactive: -3.27%
11,O=[N+]([O-])c1cc([N+](=O)[O-])c(O)c([N+](=O)[O-])c1.c1ccc(Oc2ccncc2)cc1,inactive: 4.18%
12,CCOP(C)(=S)SCC(=O)NC(C)C(=O)O (centres undefined),inactive: -0.56%
13,CP(=O)(Nc1ccccn1)Oc1ccc(Cl)cc1 (centres undefined),inactive: 23.3%
14,CCN(CC)CCCOC(=O)C(O)(c1ccccc1)c1ccccc1,inactive: 12.1%
15,O=[N+]([O-])c1cc([N+](=O)[O-])c(Nc2cccnc2)c([N+](=O)[O-])c1,inactive: 31.3%
16,O=[N+]([O-])c1ccc2c(c1)C=Nc1ccccc1O2,inactive: 6.09%
17,Cc1cccc(C)c1OP(C)(N)=O (centres undefined),inactive: -4.11%
18,CC(C)(C)c1ccc(OP(C)(=O)Nc2ccc(SC(F)(F)F)cc2)cc1 (centres undefined),inactive: -14.3%
19,Cc1ccc(NP(C)(=O)Oc2ccccc2)c(C)c1 (centres undefined),inactive: -0.51%
20,COc1ccccc1OP(C)(=O)Nc1ccc(C)cc1 (centres undefined),inactive: 2.37%
21,CCOC(=O)c1ccc(NP(C)(=O)Oc2ccccc2)cc1 (centres undefined),inactive: 1.65%
22,Cc1cc(C)cc(OP(C)(N)=O)c1 (centres undefined),inactive: 6.94%

row,SMILES,inhibition
1,COc1ccc(OP(C)(=O)Nc2cccc(F)c2)cc1 (centres undefined),inactive: -7.94%
2,COc1ccccc1OP(C)(=O)Nc1cc(Cl)ccc1C (centres undefined),inactive: -11%
3,O=C(O)c1cccc(Nc2c([N+](=O)[O-])cc([N+](=O)[O-])cc2[N+](=O)[O-])c1,inactive: 2.97%
4,CC1=NCCc2c1[nH]c1ccccc21.O=[N+]([O-])c1cc([N+](=O)[O-])c(O)c([N+](=O)[O-])c1,active: 56.1%
5,COc1ccccc1OP(C)(=O)Nc1cccc(Br)c1 (centres undefined),inactive: -10.9%
6,CCOC(=O)c1ccc(NP(C)(=O)Oc2cc(C)cc(C)c2)cc1 (centres undefined),inactive: 3.95%
7,Cc1cc(C)cc(OP(C)(=O)Nc2ccc(C)cc2C)c1 (centres undefined),inactive: -2.92%
8,Cc1ccc(C)c(NP(C)(=O)Oc2ccccc2)c1 (centres undefined),inactive: -5.73%
9,CP(=O)(Nc1cccc(Br)c1)Oc1ccccc1 (centres undefined),inactive: -7.84%
10,Cc1cc(C)cc(OP(C)(=O)Nc2ccccn2)c1 (centres undefined),inactive: 1.42%
11,O=[N+]([O-])c1cc([N+](=O)[O-])c(-n2nnc3ccccc32)c([N+](=O)[O-])c1,inactive: -3.61%
12,O=[N+]([O-])c1cc([N+](=O)[O-])c(-c2cnn(-c3ccccc3)c2)c([N+](=O)[O-])c1,inactive: 14%
13,Cc1nc2ccc3ccccc3c2s1.O=[N+]([O-])c1cc([N+](=O)[O-])c(O)c([N+](=O)[O-])c1,inactive: -9.08%
14,CCOC(=O)C(CC)C1=NC(C)(C)Cc2ccccc21.O=[N+]([O-])c1cc([N+](=O)[O-])c(O)c([N+](=O)[O-])c1 (centres undefined),inactive: -0.86%
15,O=[N+]([O-])c1cc([N+](=O)[O-])c(Nc2nnnn2CCO)c([N+](=O)[O-])c1,inactive: 3.04%
16,CC1=C2N=C(C=C3N=C(C(C)=C4[N-][C@@](C)([C@@H]5N=C1[C@](C)(CCC(=O)NC[C@@H](C)OP(=O)([O-])O[C@H]1[C@@H](O)[C@@H](n6cnc7cc(C)c(C)cc76)O[C@@H]1CO)[C@H]5CC(N)=O)[C@@](C)(CC(N)=O)[C@@H]4CCC(N)=O)[C@@](C)(CC(N)=O)[C@@H]3CCC(N)=O)C(C)(C)[C@@H]2CCC(N)=O.[C-]#N.[Co+3],inactive: 4.09%
17,COc1ccccc1OP(C)(=O)Nc1c(C)cccc1C (centres undefined),inactive: -0.75%
18,CN1CCCCC1COC(=O)C1(O)c2ccccc2CCc2ccccc21 (centres undefined),inactive: -2.92%
19,CP(=O)(Nc1ccc(SC(F)(F)F)cc1)Oc1ccccc1 (centres undefined),inactive: -10.8%
20,CCCOc1ccc(NP(C)(=O)Oc2ccc(Cl)cc2)cc1 (centres undefined),inactive: -10.7%
21,COc1ccc(OP(C)(=O)Nc2cccc(Br)c2)cc1 (centres undefined),inactive: -19.1%
22,CN(C)CCOC(=O)C(O)(c1ccccc1)C1CCCCC1 (centres undefined),inactive: 15.7%
